# For some of these results: Shown are results outside the selection of strong results, which stands elsewhere. The rule behind the calls is not given here. The list shows a part of the results, in another mix than the full data.
# The chains behind the UniProt entries cited, without tags or fusion partners. Where a name states a change or a piece, a line headed by the entry shows the natural chain unless it says otherwise.
# UniProt O75582, whole entry, looked up: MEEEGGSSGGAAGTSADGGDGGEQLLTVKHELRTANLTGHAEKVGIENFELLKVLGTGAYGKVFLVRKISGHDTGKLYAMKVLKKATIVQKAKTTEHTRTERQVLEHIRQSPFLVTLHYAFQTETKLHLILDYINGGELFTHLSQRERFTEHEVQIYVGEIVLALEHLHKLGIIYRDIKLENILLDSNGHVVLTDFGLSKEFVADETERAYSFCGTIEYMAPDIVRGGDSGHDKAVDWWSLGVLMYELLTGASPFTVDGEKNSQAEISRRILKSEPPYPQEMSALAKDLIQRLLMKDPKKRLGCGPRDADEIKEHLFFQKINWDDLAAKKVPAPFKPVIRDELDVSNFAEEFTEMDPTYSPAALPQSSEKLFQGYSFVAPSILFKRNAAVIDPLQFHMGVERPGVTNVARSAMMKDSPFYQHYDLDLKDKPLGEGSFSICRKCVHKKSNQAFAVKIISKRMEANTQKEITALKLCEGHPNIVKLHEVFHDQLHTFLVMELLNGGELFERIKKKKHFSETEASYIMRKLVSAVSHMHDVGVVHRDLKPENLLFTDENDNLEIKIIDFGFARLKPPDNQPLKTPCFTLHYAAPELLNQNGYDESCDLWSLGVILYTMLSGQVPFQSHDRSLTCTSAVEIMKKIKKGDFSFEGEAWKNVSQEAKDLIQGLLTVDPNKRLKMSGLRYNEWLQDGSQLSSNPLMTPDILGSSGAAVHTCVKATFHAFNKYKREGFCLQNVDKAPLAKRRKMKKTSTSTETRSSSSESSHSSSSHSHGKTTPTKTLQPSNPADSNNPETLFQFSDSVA
# UniProt O15264: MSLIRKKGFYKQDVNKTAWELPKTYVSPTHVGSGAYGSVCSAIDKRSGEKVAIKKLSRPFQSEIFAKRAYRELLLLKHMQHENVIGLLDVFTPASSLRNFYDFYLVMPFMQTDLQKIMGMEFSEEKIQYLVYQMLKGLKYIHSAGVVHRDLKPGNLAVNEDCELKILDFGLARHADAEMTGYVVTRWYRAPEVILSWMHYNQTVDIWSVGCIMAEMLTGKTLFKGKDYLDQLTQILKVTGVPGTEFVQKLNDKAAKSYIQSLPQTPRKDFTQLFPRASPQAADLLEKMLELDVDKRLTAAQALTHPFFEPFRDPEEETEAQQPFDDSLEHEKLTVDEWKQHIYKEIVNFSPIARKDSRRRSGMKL
# UniProt Q9H2X6: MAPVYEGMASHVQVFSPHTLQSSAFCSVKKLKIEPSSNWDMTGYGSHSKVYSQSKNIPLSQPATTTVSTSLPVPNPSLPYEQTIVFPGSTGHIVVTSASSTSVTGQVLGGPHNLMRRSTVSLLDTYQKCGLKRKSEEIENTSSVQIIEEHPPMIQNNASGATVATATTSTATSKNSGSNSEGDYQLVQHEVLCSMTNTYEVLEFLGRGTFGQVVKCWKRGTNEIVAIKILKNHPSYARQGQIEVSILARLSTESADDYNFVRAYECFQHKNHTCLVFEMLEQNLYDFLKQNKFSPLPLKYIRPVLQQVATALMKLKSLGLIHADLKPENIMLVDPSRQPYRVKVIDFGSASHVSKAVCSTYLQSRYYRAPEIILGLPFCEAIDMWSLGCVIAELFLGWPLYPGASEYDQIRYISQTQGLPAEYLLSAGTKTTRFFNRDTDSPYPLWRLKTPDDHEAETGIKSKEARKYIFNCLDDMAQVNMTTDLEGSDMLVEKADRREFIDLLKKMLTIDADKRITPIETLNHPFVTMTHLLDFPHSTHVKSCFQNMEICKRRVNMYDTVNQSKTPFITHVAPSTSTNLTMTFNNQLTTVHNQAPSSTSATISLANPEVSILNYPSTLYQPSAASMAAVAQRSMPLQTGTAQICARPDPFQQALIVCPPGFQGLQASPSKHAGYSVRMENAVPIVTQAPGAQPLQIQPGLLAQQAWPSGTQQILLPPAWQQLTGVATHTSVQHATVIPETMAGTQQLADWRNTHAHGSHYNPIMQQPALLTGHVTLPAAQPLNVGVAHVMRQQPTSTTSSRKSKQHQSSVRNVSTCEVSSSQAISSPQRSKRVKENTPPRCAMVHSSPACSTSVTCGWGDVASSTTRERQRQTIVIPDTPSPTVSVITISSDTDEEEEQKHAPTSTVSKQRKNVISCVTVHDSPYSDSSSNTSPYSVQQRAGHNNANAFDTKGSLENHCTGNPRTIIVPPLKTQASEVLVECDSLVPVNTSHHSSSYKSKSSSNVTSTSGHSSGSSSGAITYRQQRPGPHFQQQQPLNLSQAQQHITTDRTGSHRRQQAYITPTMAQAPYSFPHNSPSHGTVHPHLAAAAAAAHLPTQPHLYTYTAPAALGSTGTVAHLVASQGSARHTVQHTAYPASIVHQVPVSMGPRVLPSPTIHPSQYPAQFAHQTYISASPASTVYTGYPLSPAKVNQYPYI
# UniProt P08631: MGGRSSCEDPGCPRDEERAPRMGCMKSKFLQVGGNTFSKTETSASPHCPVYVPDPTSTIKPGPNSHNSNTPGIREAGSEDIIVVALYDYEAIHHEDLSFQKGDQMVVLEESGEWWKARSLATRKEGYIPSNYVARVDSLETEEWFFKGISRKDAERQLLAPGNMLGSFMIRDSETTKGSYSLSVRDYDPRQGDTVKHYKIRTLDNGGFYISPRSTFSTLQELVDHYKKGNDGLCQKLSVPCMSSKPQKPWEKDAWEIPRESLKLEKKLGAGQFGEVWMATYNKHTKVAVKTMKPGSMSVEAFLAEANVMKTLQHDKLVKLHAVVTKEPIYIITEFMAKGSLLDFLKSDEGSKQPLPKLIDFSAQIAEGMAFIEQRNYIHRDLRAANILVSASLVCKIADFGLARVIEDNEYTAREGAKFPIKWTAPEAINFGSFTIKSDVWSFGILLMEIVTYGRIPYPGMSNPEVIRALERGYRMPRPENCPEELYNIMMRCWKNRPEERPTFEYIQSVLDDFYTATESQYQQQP
# UniProt Q13043: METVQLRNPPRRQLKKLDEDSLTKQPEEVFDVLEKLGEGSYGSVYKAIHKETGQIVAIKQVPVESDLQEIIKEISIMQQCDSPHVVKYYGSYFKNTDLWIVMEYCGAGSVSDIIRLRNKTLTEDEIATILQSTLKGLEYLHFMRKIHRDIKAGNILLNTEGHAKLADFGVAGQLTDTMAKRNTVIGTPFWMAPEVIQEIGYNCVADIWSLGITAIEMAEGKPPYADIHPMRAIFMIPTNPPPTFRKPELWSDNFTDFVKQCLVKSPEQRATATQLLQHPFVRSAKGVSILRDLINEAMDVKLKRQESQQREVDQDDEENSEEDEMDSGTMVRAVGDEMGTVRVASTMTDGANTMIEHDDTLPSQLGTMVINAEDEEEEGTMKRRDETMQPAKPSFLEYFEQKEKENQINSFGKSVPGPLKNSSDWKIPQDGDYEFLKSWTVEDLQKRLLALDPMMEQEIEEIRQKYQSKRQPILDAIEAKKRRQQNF
# UniProt P05771, whole entry, looked up: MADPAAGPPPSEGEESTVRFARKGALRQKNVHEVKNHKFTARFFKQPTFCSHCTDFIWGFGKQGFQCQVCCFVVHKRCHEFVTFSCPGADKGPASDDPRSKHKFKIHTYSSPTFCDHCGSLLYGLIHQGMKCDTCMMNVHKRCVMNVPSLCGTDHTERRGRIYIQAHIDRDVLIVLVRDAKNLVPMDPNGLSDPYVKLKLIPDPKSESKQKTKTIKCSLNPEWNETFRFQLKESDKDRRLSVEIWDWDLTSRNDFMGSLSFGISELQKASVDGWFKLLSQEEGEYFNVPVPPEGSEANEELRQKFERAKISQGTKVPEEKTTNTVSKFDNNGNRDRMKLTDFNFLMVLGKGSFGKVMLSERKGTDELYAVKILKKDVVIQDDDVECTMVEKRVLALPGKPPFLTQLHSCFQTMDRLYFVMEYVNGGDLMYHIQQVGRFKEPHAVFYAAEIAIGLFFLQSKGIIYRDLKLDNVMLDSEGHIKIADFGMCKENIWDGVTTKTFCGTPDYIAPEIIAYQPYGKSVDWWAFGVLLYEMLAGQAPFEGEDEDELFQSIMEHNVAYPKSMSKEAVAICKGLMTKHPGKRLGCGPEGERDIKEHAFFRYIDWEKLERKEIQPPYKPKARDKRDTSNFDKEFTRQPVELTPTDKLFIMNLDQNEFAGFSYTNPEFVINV
# UniProt Q9NYY3: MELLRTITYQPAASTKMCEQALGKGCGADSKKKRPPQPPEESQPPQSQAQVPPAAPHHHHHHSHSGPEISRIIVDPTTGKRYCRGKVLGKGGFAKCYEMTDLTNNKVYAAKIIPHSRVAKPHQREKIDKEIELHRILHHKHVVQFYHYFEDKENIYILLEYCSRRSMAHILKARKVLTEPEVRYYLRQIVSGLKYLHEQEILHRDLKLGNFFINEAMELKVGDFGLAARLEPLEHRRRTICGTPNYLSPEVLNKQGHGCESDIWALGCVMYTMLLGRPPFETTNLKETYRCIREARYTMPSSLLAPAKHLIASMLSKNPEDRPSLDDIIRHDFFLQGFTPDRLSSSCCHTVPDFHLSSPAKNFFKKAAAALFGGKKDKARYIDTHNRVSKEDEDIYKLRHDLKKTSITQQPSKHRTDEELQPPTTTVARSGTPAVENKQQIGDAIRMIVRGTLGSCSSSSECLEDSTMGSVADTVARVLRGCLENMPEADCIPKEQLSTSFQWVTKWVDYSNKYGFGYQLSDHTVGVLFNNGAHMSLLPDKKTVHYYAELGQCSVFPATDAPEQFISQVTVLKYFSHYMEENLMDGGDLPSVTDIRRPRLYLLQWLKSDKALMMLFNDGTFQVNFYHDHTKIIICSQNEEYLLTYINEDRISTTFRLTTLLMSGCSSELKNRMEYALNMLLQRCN
# UniProt P09619, whole entry: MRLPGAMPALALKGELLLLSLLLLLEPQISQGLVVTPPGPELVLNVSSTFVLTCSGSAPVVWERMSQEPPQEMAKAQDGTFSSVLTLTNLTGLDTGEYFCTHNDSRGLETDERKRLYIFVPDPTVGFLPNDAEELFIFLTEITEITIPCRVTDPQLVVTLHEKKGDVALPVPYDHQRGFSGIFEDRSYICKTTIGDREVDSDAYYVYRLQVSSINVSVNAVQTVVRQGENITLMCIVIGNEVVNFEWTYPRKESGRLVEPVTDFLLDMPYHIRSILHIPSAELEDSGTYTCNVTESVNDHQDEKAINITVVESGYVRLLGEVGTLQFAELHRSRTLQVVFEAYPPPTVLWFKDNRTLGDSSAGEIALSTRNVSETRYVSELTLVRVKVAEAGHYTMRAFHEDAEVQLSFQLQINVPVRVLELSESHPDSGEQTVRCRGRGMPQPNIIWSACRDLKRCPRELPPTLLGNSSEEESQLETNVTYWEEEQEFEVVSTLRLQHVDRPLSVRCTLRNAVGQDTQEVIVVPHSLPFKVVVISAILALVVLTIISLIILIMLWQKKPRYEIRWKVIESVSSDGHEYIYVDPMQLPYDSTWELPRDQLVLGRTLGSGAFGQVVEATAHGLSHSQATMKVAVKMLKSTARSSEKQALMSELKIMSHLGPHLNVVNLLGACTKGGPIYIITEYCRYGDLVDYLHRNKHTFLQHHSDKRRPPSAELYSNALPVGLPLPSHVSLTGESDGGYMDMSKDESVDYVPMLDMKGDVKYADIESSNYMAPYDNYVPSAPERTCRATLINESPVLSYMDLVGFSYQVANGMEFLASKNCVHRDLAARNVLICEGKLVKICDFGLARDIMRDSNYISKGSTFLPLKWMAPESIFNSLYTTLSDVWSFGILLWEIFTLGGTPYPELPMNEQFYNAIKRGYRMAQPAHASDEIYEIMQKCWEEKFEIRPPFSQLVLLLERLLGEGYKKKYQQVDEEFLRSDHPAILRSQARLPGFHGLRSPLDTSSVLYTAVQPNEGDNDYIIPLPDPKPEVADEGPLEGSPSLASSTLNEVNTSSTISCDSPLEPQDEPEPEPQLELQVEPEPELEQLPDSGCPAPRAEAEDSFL
# UniProt Q9UPE1, whole entry: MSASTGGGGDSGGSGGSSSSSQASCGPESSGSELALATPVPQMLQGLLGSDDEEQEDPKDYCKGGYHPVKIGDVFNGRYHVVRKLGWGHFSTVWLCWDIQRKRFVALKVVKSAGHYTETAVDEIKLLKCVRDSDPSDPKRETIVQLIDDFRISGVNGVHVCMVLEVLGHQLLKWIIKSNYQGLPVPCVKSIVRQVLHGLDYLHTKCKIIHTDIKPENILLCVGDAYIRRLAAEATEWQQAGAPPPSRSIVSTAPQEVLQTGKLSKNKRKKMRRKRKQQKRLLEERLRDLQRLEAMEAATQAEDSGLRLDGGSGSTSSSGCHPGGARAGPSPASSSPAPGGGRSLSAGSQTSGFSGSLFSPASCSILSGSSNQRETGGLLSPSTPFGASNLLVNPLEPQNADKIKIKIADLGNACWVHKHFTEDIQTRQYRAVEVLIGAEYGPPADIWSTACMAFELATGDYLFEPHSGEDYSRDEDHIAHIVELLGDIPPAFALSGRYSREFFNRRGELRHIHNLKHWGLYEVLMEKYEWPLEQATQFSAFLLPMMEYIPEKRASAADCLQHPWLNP
# How the values were obtained:
# [1] = target: Ribosomal protein S6 kinase alpha-5 (Homo sapiens) (UniProt O75582); details: at 10 µM
# [2] = target: T1, Serine/threonine-protein kinase Nek6 (Homo sapiens) (UniProt Q9HC98); details: at 1 µM
# T1 sequence (whole entry): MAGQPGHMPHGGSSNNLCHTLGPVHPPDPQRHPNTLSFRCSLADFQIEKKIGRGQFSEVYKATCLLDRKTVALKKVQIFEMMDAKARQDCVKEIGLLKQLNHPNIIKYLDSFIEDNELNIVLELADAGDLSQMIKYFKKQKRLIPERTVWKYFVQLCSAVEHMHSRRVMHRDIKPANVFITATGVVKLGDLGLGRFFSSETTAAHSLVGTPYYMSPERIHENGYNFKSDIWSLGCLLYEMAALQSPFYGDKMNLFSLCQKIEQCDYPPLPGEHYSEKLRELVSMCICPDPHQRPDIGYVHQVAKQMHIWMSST
# [3] = target: Mitogen-activated protein kinase 13 (Homo sapiens) (UniProt O15264); details: at 1 µM
# [4] = target: Casein kinase I isoform gamma-1 (Homo sapiens) (UniProt Q9HCP0); details: at 10 µM
# [5] = target: Dual specificity protein kinase CLK3 (Homo sapiens) (UniProt P49761); details: at 10 µM
# [6] = target: Glycogen synthase kinase-3 beta (Homo sapiens) (UniProt P49841); details: at 1 µM
# [7] = target: Homeodomain-interacting protein kinase 2 (Homo sapiens) (UniProt Q9H2X6); details: at 10 µM
# [8] = target: Tyrosine-protein kinase HCK (Homo sapiens) (UniProt P08631); details: at 1 µM
# [9] = target: Tyrosine-protein kinase Lck (Homo sapiens) (UniProt P06239); details: at 10 µM
# [10] = target: Serine/threonine-protein kinase 4 (Homo sapiens) (UniProt Q13043); details: at 10 µM
# [11] = target: Serine/threonine-protein kinase Nek3 (Homo sapiens) (UniProt P51956); details: at 1 µM;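 note: residual NEK3 kinase activity given as percent of control, assayed in 8 mM MOPS buffer pH 7.0 containing 0.2 mM EDTA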
# [12] = target: Serine/threonine-protein kinase mTOR (Homo sapiens) (UniProt P42345); details: at 10 µM
# [13] = target: Serine/threonine-protein kinase mTOR (Homo sapiens) (UniProt P42345); details: at 1 µM
# [14] = target: Serine/threonine-protein kinase PAK 6 (Homo sapiens) (UniProt Q9NQU5); details: at 1 µM
# [15] = target: cAMP-dependent protein kinase catalytic subunit alpha (Homo sapiens) (UniProt P17612); details: at 10 µM
# [16] = target: Protein kinase C beta type (Homo sapiens) (UniProt P05771); details: at 10 µM
# [17] = target: Protein kinase C beta type (Homo sapiens) (UniProt P05771); details: at 1 µM
# [18] = target: Serine/threonine-protein kinase PLK2 (Homo sapiens) (UniProt Q9NYY3); details: at 1 µM;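 note: residual PLK2 kinase activity expressed as percent of uninhibited control, measured in MOPS buffer at pH 7.0 with EDTA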
# [19] = target: Tyrosine-protein kinase Fer (Homo sapiens) (UniProt P16591); details: at 1 µM
# [20] = target: Platelet-derived growth factor receptor beta (Homo sapiens) (UniProt P09619); details: at 1 µM
# [21] = target: Tyrosine-protein kinase HCK (Homo sapiens) (UniProt P08631); details: at 10 µM
# [22] = target: Serine/threonine-protein kinase PAK 4 (Homo sapiens) (UniProt O96013); details: at 1 µM
# [23] = target: Serine/threonine-protein kinase PAK 4 (Homo sapiens) (UniProt O96013); details: at 10 µM
# [24] = target: SRSF protein kinase 3 (Homo sapiens) (UniProt Q9UPE1); details: at 1 µM;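 note: residual kinase activity expressed as percent of uninhibited control, measured in MOPS buffer at pH 7.0 containing EDTA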
compound,measurement,setting,value
COc1cc2ncnc(Nc3ccc(OCc4ccccc4)cc3)c2cc1OC,residual activity,[1],138%
same,residual activity,[2],inactive: 87%
O=c1[nH]c2ccccc2n1C1CCN(Cc2ccc(-c3nc4cc5[nH]cnc5cc4nc3-c3ccccc3)cc2)CC1,residual activity,[3],107%
O=[N+]([O-])/C=C/c1ccc2c(c1)OCO2,residual activity,[4],103%
same,residual activity,[5],132%
same,residual activity,[6],108%
same,residual activity,[7],103%
same,residual activity,[8],107%
same,residual activity,[9],89%
same,residual activity,[10],105%
same,residual activity,[11],114%
same,residual activity,[12],104%
same,residual activity,[13],102%
same,residual activity,[2],inactive: 109%
same,residual activity,[14],105%
same,residual activity,[15],101%
same,residual activity,[16],102%
same,residual activity,[17],102%
COC(=O)[C@@]1(O)C[C@H]2O[C@]1(C)n1c3ccccc3c3c4c(c5c6ccccc6n2c5c31)C(=O)NC4,residual activity,[18],72%
O=C1Nc2ccc3ncsc3c2/C1=C/c1c[nH]cn1,residual activity,[19],97%
same,residual activity,[20],79%
COc1cc(OC)c(/C=C2\C(=O)Nc3ccccc32)c(OC)c1,residual activity,[21],88%
same,residual activity,[22],89%
same,residual activity,[23],89%
CN[C@@H]1C[C@H]2O[C@@](C)([C@@H]1OC)n1c3ccccc3c3c4c(c5c6ccccc6n2c5c31)C(=O)NC4,residual activity,[24],92%
